Target: T1, A2A adenosine receptor (Rattus norvegicus, UniProt P30543)
T1 construct: from tissue; host or cells: striatum of male Wistar rats
Test: Radioligand binding, [3H]MSX-2 displacement in rat striatal membranes
Conditions: 0.75 nM [3H]MSX-2
Procedure: Male Wistar rats were sacrificed. The cerebral cortex and striatum were then removed and homogenized in 10 volumes of ice-cold 50 mM Tris–HCl buffer (pH 7.4). The homogenates were centrifuged (48,000 ×g) at 4°C for 10 min, the supernatant decanted, and the pellet resuspended in the same volume of buffer before being centrifuged again. The final pellets were resuspended in 50 mM Tris–HCl buffer containing adenosine deaminase (1.2 U per mg of protein) to remove endogenous adenosine.
Binding affinity at adenosine A2A receptors was tested in rat striatal membranes using 0.75 nM [^3H]MSX-2 (104.8 Ci/mmol). The binding assay was carried out in Tris–HCl buffer (50 mM, pH 7.4) as previously described, [12]. Briefly, assays were performed by first incubating the mixtures on a shaking water-bath at 25°C for 30 min. Termination of the incubation was performed by rapid filtration through GF/B glass fiber filters. The radioactivity on the filter was measured using a scintillation counter. […] For saturation analysis, the KD value was set at 0.14 nM and the Bmax value was 2290 fmol/mg protein for binding of [^3H]DPCPX to the A1 adenosine receptor. Meanwhile, the KD value was set at 11.48 nM and the Bmax value was 5651 fmol/mg protein for binding of [^3H]MSX-2 to the A2A adenosine receptor. […]

By UniProt entry, the sequences of proteins in these tests, tags left out. Where a name states a change or a piece, a line headed by the entry shows the natural chain unless it says otherwise.
UniProt P30543, whole entry: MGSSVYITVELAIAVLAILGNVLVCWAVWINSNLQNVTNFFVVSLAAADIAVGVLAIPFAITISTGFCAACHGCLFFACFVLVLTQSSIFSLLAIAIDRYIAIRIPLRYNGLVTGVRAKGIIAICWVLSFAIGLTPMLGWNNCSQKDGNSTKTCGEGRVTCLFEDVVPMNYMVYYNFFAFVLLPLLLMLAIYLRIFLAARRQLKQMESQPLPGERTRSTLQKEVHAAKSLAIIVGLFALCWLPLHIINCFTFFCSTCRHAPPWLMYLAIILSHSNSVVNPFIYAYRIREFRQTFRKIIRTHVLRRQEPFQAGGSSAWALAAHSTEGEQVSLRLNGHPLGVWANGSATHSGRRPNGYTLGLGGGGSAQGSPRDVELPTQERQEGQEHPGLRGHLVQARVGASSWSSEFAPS

Nc1nc(Cl)nc2c1ncn2[C@@H]1O[C@H](CO)[C@@H](O)[C@H]1O [2-CADO, 2-chloroadenosine, reference compound] showed a Ki of 160 nM.
